Test results from patent US4909940A, “Extraction of process chemicals from labile biological mixtures with organic alcohols or with halogenated hydrocarbons” (priority 1987, dated 1990).

Legend:
anti-thrombin III = test: Activity after treatment and FORANE extraction: anti-thrombin III; conditions: 2% TNBP, 4 hours, then 20% FORANE; compared to untreated
Factor VII = test: Coagulation factor activity after treatment and FORANE extraction: Factor VII; assay type: biochemical; conditions: 2% TNBP or 1% TNBP/1% detergent, 4 hours, then 20% FORANE; compared to untreated
Factor II = test: Coagulation factor activity after treatment and FORANE extraction: Factor II; assay type: biochemical; conditions: 2% TNBP or 1% TNBP/1% detergent, 4 hours, then 20% FORANE; compared to untreated
Factor IX = test: Coagulation factor activity after treatment and FORANE extraction: Factor IX; assay type: biochemical; conditions: 2% TNBP or 1% TNBP/1% detergent, 4 hours, then 20% FORANE; compared to untreated
Factor X = test: Coagulation factor activity after treatment and FORANE extraction: Factor X; assay type: biochemical; conditions: 2% TNBP or 1% TNBP/1% detergent, 4 hours, then 20% FORANE; compared to untreated
Factor VIII = test: Coagulation factor activity after treatment and FORANE extraction: Factor VIII; assay type: biochemical; conditions: 2% TNBP or 1% TNBP/1% detergent, 4 hours, then 20% FORANE; compared to untreated

Structure (SMILES): CCCCOP(=O)(OCCCC)OCCCC
- Percent Recovery anti-thrombin III (anti-thrombin III): 100%
- Percent Recovery Factor VII (Factor VII): 95%
- Percent Recovery Factor II (Factor II): 105%
- Percent Recovery Factor IX (Factor IX): 89%
- Percent Recovery Factor X (Factor X): 98%
- Percent Recovery Factor VIII (Factor VIII): 81%
